Test results reported in PubChem BioAssay AID720711 (National Center for Advancing Translational Sciences (NCATS), 2013).
This is a selection; strong and weak results do not stand in their true shares. Activity calls are given as the source filed them. Calls follow the shape of the dose curve; as a rule, active = well fitted activation curve with a large enough effect; inconclusive = small, poorly fitted or top-dose-only effect; inactive = no such curve, though single readings can be large or run the other way.

The chains behind the UniProt entries cited, without tags or fusion partners.
UniProt Q8WZA2, whole entry: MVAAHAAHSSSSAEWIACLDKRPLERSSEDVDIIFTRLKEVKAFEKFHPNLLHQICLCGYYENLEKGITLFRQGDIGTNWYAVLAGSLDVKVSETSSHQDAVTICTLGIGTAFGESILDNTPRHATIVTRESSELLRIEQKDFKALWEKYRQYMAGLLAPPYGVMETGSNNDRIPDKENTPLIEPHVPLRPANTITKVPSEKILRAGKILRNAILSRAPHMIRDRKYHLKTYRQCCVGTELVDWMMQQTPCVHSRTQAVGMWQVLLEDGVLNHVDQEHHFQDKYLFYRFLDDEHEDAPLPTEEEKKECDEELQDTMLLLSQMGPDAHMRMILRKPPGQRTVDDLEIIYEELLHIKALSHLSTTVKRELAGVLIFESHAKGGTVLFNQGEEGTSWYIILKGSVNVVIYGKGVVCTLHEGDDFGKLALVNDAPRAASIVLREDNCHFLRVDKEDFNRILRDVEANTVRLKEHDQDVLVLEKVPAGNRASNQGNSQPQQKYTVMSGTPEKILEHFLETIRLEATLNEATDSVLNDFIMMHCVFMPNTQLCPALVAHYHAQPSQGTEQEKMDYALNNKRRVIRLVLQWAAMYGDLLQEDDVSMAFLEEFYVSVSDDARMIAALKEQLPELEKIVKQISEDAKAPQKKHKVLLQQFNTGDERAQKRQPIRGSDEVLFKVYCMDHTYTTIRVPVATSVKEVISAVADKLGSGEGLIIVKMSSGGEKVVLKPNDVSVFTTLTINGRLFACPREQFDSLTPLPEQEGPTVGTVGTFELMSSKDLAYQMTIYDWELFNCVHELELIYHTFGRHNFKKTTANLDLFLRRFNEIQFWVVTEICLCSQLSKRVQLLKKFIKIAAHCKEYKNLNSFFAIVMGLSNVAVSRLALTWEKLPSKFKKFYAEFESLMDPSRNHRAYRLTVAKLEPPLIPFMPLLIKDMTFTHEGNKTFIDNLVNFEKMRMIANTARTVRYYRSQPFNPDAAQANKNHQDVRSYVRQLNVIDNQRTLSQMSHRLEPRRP

target: Rap guanine nucleotide exchange factor 4 (Homo sapiens) (UniProt Q8WZA2); experiment: qHTS for Agonist of cAMP-regulated guanine nucleotide exchange factor 4 (EPAC2): primary screen; conditions: biochemical qHTS, 100% = 6.5 mM cAMP response; at 154 µM (top of the series); also: nearly all actives have a fitted effect of over 50% in size
Excerpt: In multi-cellular eukaryotic organisms, the effects of cAMP are transduced by two ubiquitously-expressed intracellular cAMP receptors, the classic protein kinase A/cAMP-dependent protein kinase (PKA/cAPK) and the more recently discovered exchange protein directly activated by cAMP/cAMP-regulated guanine nucleotide exchange factor (EPAC/cAMP-GEF). Both PKA and EPAC are ubiquitously expressed in all tissues, and an increase in intracellular cAMP levels will lead to the activation of both PKA and EPAC. […]
This qHTS will be used to screen the Molecular Libraries Small Molecule Repository (MLSMR) as a concentration-titration series using the NCGC unique quantitative screening (qHTS) platform to find activators for EPAC2. […] Activators are identified by monitoring the change in fluorescence signal as the exchanged free BODIPY-GDP has a reduced fluorescence compared to Rap1-bound BODIPY-GDP. […]
Briefly, three uL of reagents (100 nM EPAC2, 250 nM RAP1B-BODIPY-GDP, 50 uM GDP) were dispensed into a 1536-well Greiner black solid-bottom medium binding assay plate. […] The assay plates were read at 5 minute intervals for 30 minutes in the ViewLux plate reader using 480nm excitation and 540nm emission filters. […]

SMILES	activation
CCC(=O)N(c1ccccc1)C1(COC)CCN(CCn2nnn(CC)c2=O)CC1	inactive: 8.93%
CCC(=O)N(c1ccccc1)C1(COC)CCN(CCc2cccs2)CC1	inactive: 9.22%
